Patent US20160326143A1, “COMPOUNDS AND USES” (AstraZeneca AB, priority 2015, published 2016)

Chains of the proteins cited; added tags and fusions are not shown. Lines headed by an entry give the natural chain unless they say otherwise; changes in a name come on top.
UniProt Q16873: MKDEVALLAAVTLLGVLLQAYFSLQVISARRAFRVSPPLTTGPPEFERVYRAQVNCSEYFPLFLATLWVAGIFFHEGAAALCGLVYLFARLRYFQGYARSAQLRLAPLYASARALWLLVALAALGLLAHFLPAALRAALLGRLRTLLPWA

Biological target: human recombinant purified LTC4 synthase (Homo sapiens (Human), UniProt Q16873)
Conditions: read-out: hLTC4 synthase IC50; Test B (Examples 62-65); substrate LTA4 methyl ester, product detected by LCMSMS; median of at least two determinations

SMILES: CCCN(c1cnc(C(=O)[C@H]2C[C@@H]2C(=O)O)c(OC)n1)c1cc(Cl)c(F)cc1F [Example 64, (1S,2S)-2-({5-[(5-Chloro-2,4-difluorophenyl)(propyl)amino]-3-methoxypyrazin-2-yl}carbonyl)cyclopropanecarboxylic acid]
- IC50: 0.483 nM
